Experiment: Phase-solubility analysis: association constant between bimatoprost and cyclodextrin or cyclodextrin derivative
Assay type: physicochemical
Settings: 1:1 complex with bimatoprost, stirred one week at room temperature
From the text: The association constant between an active drug and a cyclodextrin or cyclodextrin derivative is used to quantify the equilibrium association reaction depicted in equation 1, D+CD=D . . . CD (1) where D represents the active drug, CD represents the cyclodextrin or cyclodextrin derivative, and D . . . CD represents the associated complex of the two. The association constant, K, defines the relationship between the molar concentration of the active drug, [D], the molar concentration of the cyclodextrin or cyclodextrin derivative, [CD], and the molar concentration of the complex, [D . . . CD], according to equation 2. [formula]
The association constant between the bimatoprost and four cyclodextrin or cyclodextrin derivatives was determined by running phase-solubility analysis. […] The concentration of the solubilized drug in each filtrate sample was determined and drug solubility (y-axis) was plotted against the concentration of the cyclodextrin or cyclodextrin derivative (x-axis). A linear fit of the data was made using least-squares regression to a linear to equation (3). y=(slope)x+b (4) The association constant for a 1:1 complex (K) was determined by equation (5) K=slope/S0(1−slope) (5) where S0is the maximum solubility of the active drug in the formulation in the absence of the cyclodextrin or cyclodextrin derivative. […]

Association Constant (molar association constant for bimatoprost): ≈201 M^−1
Substance: 2-Hydroxypropyl γ-cyclodextrin

Source: patent publication US6933289B2, “Inhibition of irritating side effects associated with use of a topical ophthalmic medication” (Allergan, Inc., priority 2003, dated 2005)
